Drawing on ChEMBL document CHEMBL5244233, “Overview of cannabidiol (CBD) and its analogues: Structures, biological activities, and neuroprotective mechanisms in epilepsy and Alzheimer's disease” (Eur J Med Chem, 2020), this text covers Ki for one compound.

Sequences of proteins named here, by UniProt entry; tags and fusion partners are left off.
UniProt P20272, whole entry: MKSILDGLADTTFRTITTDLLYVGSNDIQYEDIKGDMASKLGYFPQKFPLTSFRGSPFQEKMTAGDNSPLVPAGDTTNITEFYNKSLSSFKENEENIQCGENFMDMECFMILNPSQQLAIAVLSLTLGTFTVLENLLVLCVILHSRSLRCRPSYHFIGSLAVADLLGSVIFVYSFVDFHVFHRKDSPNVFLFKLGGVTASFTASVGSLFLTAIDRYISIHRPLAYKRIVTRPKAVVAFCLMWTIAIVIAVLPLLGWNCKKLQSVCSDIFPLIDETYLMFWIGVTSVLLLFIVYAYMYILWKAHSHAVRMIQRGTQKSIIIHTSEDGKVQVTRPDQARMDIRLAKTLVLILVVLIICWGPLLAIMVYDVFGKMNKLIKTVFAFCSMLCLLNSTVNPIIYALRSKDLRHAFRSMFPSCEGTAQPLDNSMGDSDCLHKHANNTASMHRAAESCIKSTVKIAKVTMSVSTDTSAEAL

This assay addresses Cannabinoid receptor 1 (Rattus norvegicus, UniProt P20272). The assay is described as follows: Displacement of [3H]CP55940 from rat brain membrane CB1 receptor assessed as inhibition constant incubated for 90 mins. In kind it is cell membranes. (In general: Loss of bound radioactivity is the signal in a displacement assay; it reports binding, not function.)

Turning to `C=C(C)[C@@H]1CCC(C)=C[C@H]1c1c(O)cc(CCCCC)cc1O` [CANNABIDIOL], the Ki was > 10 µM.

One may read the Ki as a measure of affinity in units of concentration, obtained from inhibition or displacement.
